From ChEMBL document CHEMBL5725550, “Unsaturated nitrogen heterocyclic compounds useful as PDE10 inhibitors” (2017) come the findings set out here.

Protein sequences, listed by entry. Tags and fused reporters are not part of them. Lines headed by an entry give the natural chain unless they say otherwise; changes in a name come on top.
UniProt Q9Y233: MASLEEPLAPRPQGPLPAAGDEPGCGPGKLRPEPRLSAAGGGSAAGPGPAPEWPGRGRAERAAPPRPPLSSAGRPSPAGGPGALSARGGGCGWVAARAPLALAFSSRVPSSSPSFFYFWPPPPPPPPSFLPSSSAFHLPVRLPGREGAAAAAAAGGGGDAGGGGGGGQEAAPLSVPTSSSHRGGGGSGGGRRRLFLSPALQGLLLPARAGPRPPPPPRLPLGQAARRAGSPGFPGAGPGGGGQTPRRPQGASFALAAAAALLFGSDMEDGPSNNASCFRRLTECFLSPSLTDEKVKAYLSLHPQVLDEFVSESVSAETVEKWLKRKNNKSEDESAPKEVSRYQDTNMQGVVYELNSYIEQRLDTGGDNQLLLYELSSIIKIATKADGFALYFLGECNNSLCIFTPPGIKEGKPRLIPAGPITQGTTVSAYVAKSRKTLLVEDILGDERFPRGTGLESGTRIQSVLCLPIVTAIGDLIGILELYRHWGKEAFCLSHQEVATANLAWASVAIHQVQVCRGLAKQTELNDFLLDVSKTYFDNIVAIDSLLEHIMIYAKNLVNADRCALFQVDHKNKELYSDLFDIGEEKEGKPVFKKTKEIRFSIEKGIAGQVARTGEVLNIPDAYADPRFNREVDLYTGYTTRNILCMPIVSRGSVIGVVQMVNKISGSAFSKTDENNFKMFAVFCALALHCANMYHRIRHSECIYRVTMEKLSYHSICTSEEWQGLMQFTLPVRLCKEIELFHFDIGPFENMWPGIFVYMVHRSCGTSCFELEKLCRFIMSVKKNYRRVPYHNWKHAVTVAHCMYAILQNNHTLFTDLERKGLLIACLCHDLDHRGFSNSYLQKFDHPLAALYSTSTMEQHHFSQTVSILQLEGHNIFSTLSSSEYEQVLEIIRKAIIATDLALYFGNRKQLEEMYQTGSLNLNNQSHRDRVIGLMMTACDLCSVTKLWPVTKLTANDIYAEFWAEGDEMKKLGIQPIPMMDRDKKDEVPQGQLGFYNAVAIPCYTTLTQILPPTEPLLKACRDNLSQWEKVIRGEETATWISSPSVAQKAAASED

The target of this assay is cAMP and cAMP-inhibited cGMP 3',5'-cyclic phosphodiesterase 10A (Homo sapiens, UniProt Q9Y233).

Molecules are shown by their SMILES.

Broadly, the IC50 is the concentration at which inhibition is half-maximal. Read a high IC50 as a need for much substance. For the compound `COc1ncccc1-c1nccnc1C1CN(c2ccc3ccccc3n2)C1`, it took 2 pM to reach half-maximal inhibition (IC50).
`COc1cccc(-c2nccnc2C2CN(c3ccc4ccccc4n3)C2)n1`: the IC50 worked out at 1 pM.
As to `Oc1ccc(-c2nccnc2C2CN(c3ccc4ccccc4n3)C2)cc1Cl`, half-maximal inhibition (IC50) required 2 pM.
Regarding `CC(C)(O)C1CCN(c2nccnc2C2CN(C(=O)c3nc4ccccc4[nH]3)C2)CC1`, the IC50 is 56300 pM.
Then `OCC1CCN(c2nccnc2C2CCN(c3ccc4ccccc4n3)CC2)CC1`, with 1720 pM; and `CS(=O)(=O)c1ccc(-c2nccnc2C2CN(c3ccc4ccccc4n3)C2)cc1`, with 3 pM.
